# How the values were obtained:
# Amino acid sequences for entries named in this document (tags omitted).
# UniProt O75874, whole entry R132C: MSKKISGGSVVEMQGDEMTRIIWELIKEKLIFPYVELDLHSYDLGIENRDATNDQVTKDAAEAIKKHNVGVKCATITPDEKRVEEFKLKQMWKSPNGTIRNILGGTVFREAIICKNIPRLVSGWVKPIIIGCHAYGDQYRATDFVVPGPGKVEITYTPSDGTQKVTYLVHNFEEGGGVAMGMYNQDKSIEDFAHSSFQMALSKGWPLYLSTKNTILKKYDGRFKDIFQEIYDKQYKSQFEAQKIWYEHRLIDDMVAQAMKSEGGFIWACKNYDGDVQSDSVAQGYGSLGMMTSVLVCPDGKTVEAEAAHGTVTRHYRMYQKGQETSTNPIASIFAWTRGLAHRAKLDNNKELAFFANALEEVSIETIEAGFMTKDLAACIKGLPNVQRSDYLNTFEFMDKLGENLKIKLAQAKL
# UniProt O75874, whole entry R132H: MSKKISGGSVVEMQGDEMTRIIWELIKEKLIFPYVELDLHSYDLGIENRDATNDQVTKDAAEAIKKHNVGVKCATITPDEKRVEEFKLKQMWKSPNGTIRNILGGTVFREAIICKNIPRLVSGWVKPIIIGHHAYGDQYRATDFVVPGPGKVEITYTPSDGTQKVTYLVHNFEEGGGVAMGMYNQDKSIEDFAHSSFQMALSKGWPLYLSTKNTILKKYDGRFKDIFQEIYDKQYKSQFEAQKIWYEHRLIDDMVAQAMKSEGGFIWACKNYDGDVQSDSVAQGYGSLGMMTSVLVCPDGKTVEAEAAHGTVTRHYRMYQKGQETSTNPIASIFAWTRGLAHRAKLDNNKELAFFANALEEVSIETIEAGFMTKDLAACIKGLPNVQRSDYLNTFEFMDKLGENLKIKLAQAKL
# IDH1 R132C = IDH1 R132C (Homo sapiens, UniProt O75874, R132C); experiment: Enzymatic inhibition assay, mutant IDH1 R132C (NADPH depletion coupled to diaphorase/resazurin); settings: read-out: Data for R132C; IDH1 R132C enzyme, IC50 class
# IDH1 R132H = IDH1 R132H (Homo sapiens, UniProt O75874, R132H); experiment: Enzymatic inhibition assay, mutant IDH1 R132H (NADPH depletion coupled to diaphorase/resazurin); settings: read-out: Data for R132H; IDH1 R132H enzyme, IC50 class
smiles,measurement,setting,value
CCc1cccc(CC)c1-n1c(C=C(C)C)c(C(=O)N2C[C@H]3CC[C@@H](C2)N3)cc(-c2nc(-c3ccc(C(F)(F)F)cc3)cs2)c1=O,IC50,IDH1 R132C,< 300 nM
same,IC50,IDH1 R132H,< 300 nM
CCc1cccc(CC)c1-n1c(C=C(C)C)c(C(=O)N2C[C@H]3CC[C@@H](C2)N3)cc(-c2nc(-c3ccc(Cl)cc3)cs2)c1=O,IC50,IDH1 R132C,< 300 nM
same,IC50,IDH1 R132H,< 300 nM

# — patent publication US10836759B2, “Thiazole derivatives useful as mutant IDH1 inhibitors for treating cancer” (THE UNITED STATES OF AMERICA, AS REPRESENTED BY THE …, priority 2016, dated 2020)
